{"sequences": {"note": "Chains of the proteins cited; added tags and fusions are not shown.", "UniProt P35398, whole entry": "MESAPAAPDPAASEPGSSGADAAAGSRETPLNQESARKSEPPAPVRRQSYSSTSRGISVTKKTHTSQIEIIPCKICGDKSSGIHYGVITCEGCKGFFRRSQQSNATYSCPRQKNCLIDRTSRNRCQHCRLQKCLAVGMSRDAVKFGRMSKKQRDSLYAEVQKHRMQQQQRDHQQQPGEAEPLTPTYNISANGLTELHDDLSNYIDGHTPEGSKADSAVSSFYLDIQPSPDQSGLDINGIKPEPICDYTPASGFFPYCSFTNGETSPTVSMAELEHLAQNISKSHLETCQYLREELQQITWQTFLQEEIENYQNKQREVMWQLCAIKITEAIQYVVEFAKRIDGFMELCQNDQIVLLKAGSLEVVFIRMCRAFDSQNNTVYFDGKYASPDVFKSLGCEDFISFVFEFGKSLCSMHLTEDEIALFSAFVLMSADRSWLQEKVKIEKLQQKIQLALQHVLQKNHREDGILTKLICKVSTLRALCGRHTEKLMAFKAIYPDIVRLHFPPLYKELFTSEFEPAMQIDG"}, "source": "PubChem BioAssay AID560", "about": "(The Scripps Research Institute Molecular Screening Center, 2006)", "note": "The entries are a selection whose mix differs from that of the whole data set. Some results for these compounds are left out of this collection, so the calls shown say nothing about other tests. Active and inactive are the calls of the source.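 Rule for the calls: active = activation above the mean of all tested compounds plus 3 SD (cut at about 49% in these data); inactive = the rest.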", "data": [{"molecular_target": "Nuclear receptor ROR-alpha (Homo sapiens) (UniProt P35398)", "assay": "activators of orphan receptor RORA, primary screen, cell-based, luminescence (AID 560);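 note: 0% = DMSO-treated RORA cells and 100% = added signal equal to DMSO minus mock-transfected cells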", "conditions": "CHO-K1 Gal4-RORA LBD luciferase reporter, at 10 µM, stronger effect = higher value, percent increase over mock-subtracted basal signal", "values": [{"smiles": "CN(C)c1cccc(C(=O)NCC2(N(C)C)CCCCC2)c1", "activation": "inactive: -12.3%"}, {"smiles": "O=C(OC1CN2CCC1CC2)C(CO)(c1ccccc1)c1ccccc1", "note": "(configuration not stated)", "activation": "inactive: -11.2%"}]}]}
